## Membrane permeability of cyclic peptides

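The data file gives no further conditions (lipid, pH, time, direction or concentration), and values from different papers need not be comparable. Other peptides of the study may be missing here. Entries at the database's floor value (log10 P of -10) are not listed.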

PAMPA measures passive passage through an artificial lipid membrane. P is given in units of 10^-6 cm/s (from log10 values with two decimals); larger means faster passage.

compound | PAMPA (10^-6 cm/s)
CCCN1CC(=O)N[C@@H](CC(C)C)C(=O)N[C@@H](Cc2ccccc2)CC(=O)N2CCC[C@@H]2C(=O)N[C@@H](CC(C)C)C(=O)N[C@@H](Cc2ccccc2)C(=O)N2CCC[C@@H]2C1=O | 0.58
CC(C)C[C@@H]1C(=O)N[C@@H](Cc2ccccc2)C(=O)N2CCC[C@H]2C(=O)N[C@@H](C)C(=O)N[C@H](CC(C)C)C(=O)N(Cc2ccccc2)CC(=O)N2CCC[C@H]2C(=O)N1C | 1.3
CC(C)C[C@@H]1C(=O)N[C@H](CC(C)C)C(=O)N2CCC[C@H]2C(=O)N(Cc2ccccc2)CC(=O)N[C@@H](Cc2ccccc2)C(=O)N[C@@H](Cc2ccccc2)CC(=O)N1C | 4.9
CCCN1CC(=O)N(C)[C@@H](CC(C)C)C(=O)N[C@@H](CC(C)C)C(=O)N2CCC[C@H]2C(=O)N[C@@H](CC(C)C)C(=O)N[C@@H](Cc2ccccc2)C(=O)N2CCC[C@H]2C1=O | 1.9
CC(C)C[C@@H]1C(=O)N2CCC[C@@H]2C(=O)N(C)[C@H](CC(C)C)C(=O)N[C@@H](Cc2ccccc2)C(=O)N2CCC[C@H]2C(=O)N(C)[C@H](C)C(=O)N(Cc2ccccc2)CC(=O)N1C | 2.8
CC(C)C[C@@H]1C(=O)N(C)[C@@H](CC(C)C)C(=O)N2CCC[C@@H]2C(=O)N[C@H](CC(C)C)C(=O)N[C@@H](Cc2ccccc2)C(=O)N2CCC[C@H]2C(=O)N[C@@H](C)C(=O)N1C | 2.5
CC(C)C[C@@H]1NC(=O)[C@H](CC(C)C)N(C)C(=O)[C@H](C)N(C)C(=O)[C@H]2CCCN2C(=O)[C@H](Cc2ccccc2)NC(=O)[C@H](CC(C)C)N(C)C(=O)[C@@H]2CCCN2C1=O | 11
CCCN1CC(=O)N(C)[C@@H](CC(C)C)C(=O)N[C@H](CC(C)C)C(=O)N2CCC[C@@H]2C(=O)N(C)[C@@H](CC(C)C)C(=O)N[C@@H](Cc2ccccc2)C(=O)N2CCC[C@H]2C1=O | 6.3
CC(C)C[C@H]1NC(=O)[C@H](C)NC(=O)[C@@H]2CCCN2C(=O)[C@H](Cc2ccccc2)NC(=O)CN(Cc2ccccc2)C(=O)[C@@H]2CCCN2C(=O)[C@@H](CC(C)C)NC1=O | 2.2
CC(C)C[C@@H]1NC(=O)[C@H](CC(C)C)N(C)C(=O)[C@@H](C)N(C)C(=O)[C@@H]2CCCN2C(=O)[C@H](Cc2ccccc2)NC(=O)[C@H](CC(C)C)N(C)C(=O)[C@H]2CCCN2C1=O | 9.1
CCCN1CC(=O)N(C)[C@H](CC(C)C)C(=O)N[C@@H](CC(C)C)C(=O)N2CCC[C@@H]2C(=O)N[C@@H](CC(C)C)C(=O)N[C@@H](Cc2ccccc2)C(=O)N2CCC[C@@H]2C1=O | 1.6
CC(C)C[C@@H]1C(=O)N(C)[C@H](CC(C)C)C(=O)N2CCC[C@@H]2C(=O)N(C)[C@@H](CC(C)C)C(=O)N[C@@H](Cc2ccccc2)C(=O)N2CCC[C@H]2C(=O)N(C)[C@H](C)C(=O)N1C | 7.6
CC(C)C[C@@H]1NC(=O)C[C@H](Cc2ccccc2)NC(=O)[C@@H]2CCCN2C(=O)[C@H](Cc2ccccc2)NC(=O)[C@@H](CC(C)C)N(C)C(=O)[C@H]2CCCN2C(=O)[C@@H](CC(C)C)N(C)C1=O | 3.4
CCCN1CC(=O)N(C)[C@@H](CC(C)C)C(=O)N(C)[C@H](CC(C)C)C(=O)N2CCC[C@@H]2C(=O)N(C)[C@@H](CC(C)C)C(=O)N[C@@H](Cc2ccccc2)C(=O)N2CCC[C@H]2C1=O | 11
CCCN1CC(=O)N[C@H](CC(C)C)C(=O)N(C)[C@@H](CC(C)C)C(=O)N2CCC[C@@H]2C(=O)N[C@H](CC(C)C)C(=O)N[C@@H](Cc2ccccc2)C(=O)N2CCC[C@H]2C1=O | 1.9
CC(C)C[C@@H]1NC(=O)[C@@H](C)NC(=O)[C@H](Cc2ccccc2)NC(=O)[C@H](CC(C)C)N(C)C(=O)[C@H]2CCCN2C(=O)[C@H](CC(C)C)NC1=O | 2.3
CC(C)C[C@@H]1NC(=O)CN(Cc2ccccc2)C(=O)[C@H](C)N(C)C(=O)[C@H]2CCCN2C(=O)[C@H](Cc2ccccc2)NC(=O)CN(Cc2ccccc2)C(=O)[C@@H]2CCCN2C1=O | 1.5
CC(C)C[C@@H]1NC(=O)[C@@H](C)NC(=O)[C@H]2CCCN2C(=O)[C@H](Cc2ccccc2)NC(=O)CN(Cc2ccccc2)C(=O)[C@@H]2CCCN2C(=O)[C@@H](CC(C)C)N(C)C1=O | 1.9

Repeated from above, the 2 entries with the highest PAMPA:

compound | PAMPA (10^-6 cm/s)
CC(C)C[C@@H]1NC(=O)[C@H](CC(C)C)N(C)C(=O)[C@H](C)N(C)C(=O)[C@H]2CCCN2C(=O)[C@H](Cc2ccccc2)NC(=O)[C@H](CC(C)C)N(C)C(=O)[C@@H]2CCCN2C1=O | 11
CCCN1CC(=O)N(C)[C@@H](CC(C)C)C(=O)N(C)[C@H](CC(C)C)C(=O)N2CCC[C@@H]2C(=O)N(C)[C@@H](CC(C)C)C(=O)N[C@@H](Cc2ccccc2)C(=O)N2CCC[C@H]2C1=O | 11

Data: CycPeptMPDB; original report Townsend et al. 2020, doi:10.26434/chemrxiv.13335941.v1.